Measurements taken from patent US20250257071A9, “TRICYCLIC COMPOUND, METHOD FOR PREPARING SAME, AND USE THEREOF” (Sichuan Kelun-Biotech Biopharmaceutical Co., Ltd., priority 2021, published 2025).

Tests used:
[1] = system: peripheral blood mononuclear cells (PBMCs) in the presence of HCC1954 tumor cells; assay: TNF-α secretion by PBMCs co-incubated with HER2-expressing HCC1954 tumor cells (ELISA); assay type: cell-based, human; details: 68.4 nM test substance, HCC1954 + PBMC co-incubation, 48 h
[2] = system: HCC1954 human breast cancer cells; assay: Drug efficacy of ISAC in SCID-beige mouse xenograft tumor model (HCC1954); assay type: in vivo; details: 9.95 mg/kg, single i.p.

Trastuzumab: Trastuzumab monoclonal antibody, comparator and antibody part of the ISACs
TNF-α [1]: 17.39 pg/mL
Inhibition rate, TGI % Day 7 ([2]; Day 7): 17.64%
Inhibition rate, TGI % Day 14 ([2]; Day 14): 1.82%
Inhibition rate, TGI % Day 21 ([2]; Day 21): 5.13%
effect on tumor growth (in words) ([2]; after 21 days): no obvious effect
Tumor regression ([2]; animals with regression / animals in group): 0/6
